US11168080B2, “Dynamin-1-like protein inhibitors” (Mitobridge, Inc., priority 2017, dated 2021)

The chains behind the UniProt entries cited, without tags or fusion partners.
UniProt O00429, whole entry: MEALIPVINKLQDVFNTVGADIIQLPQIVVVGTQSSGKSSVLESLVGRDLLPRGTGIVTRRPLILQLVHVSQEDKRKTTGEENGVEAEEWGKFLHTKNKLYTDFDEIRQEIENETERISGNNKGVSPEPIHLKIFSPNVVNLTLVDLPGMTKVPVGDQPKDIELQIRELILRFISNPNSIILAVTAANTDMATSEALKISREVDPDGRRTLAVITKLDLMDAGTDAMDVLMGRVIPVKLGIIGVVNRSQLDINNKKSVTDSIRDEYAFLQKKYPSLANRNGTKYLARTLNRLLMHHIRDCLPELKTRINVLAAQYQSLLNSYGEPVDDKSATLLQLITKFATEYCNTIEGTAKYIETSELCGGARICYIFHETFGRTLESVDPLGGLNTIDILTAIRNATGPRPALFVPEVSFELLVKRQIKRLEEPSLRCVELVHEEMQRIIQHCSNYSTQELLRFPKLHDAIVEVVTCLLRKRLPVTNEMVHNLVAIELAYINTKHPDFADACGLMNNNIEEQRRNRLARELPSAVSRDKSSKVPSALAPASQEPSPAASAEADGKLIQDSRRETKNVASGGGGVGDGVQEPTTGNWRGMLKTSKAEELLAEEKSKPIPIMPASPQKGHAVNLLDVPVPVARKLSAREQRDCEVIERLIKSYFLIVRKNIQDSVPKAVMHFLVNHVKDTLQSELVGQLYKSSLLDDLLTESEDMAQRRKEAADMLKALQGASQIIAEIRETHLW

Target: Drp1 (Homo sapiens (Human), UniProt O00429)
Assay: Drp1 Activity Screen: colorimetric (malachite green) GTPase assay
Format: biochemical
Details: 1 mM GTP, 20 min at 37° C.; for IC50: GTPase activity, 0.6 μM Drp1 preincubated with 0.1 mg/mL liposomes; for max % inh: max % inhibition of Drp1 GTPase activity, 0.6 μM Drp1, 0.1 mg/mL liposomes
Protocol: The GTPase activity of Drp1 was assayed using a colorimetric assay similar to as described previously by Leonard M. et al. “Robust colorimetric assays for dynamin's basal and stimulated GTPase activities.” Methods Enzymol. […] Briefly, for GTPase assays of purified Drp1 inhibitor samples, 0.6 μM Drp1 preincubated with 0.1 mg/mL liposomes (consisting of 80% soybean lipids/20% cardiolipin) and inhibitor was added to 1 mM GTP in a microtiter plate for 20 min at 37° C. in 4 mM MgCl2, 10 mM Hepes (pH 7.0), 100 mM KCl, 1 mM DTT. Reactions were stopped by diluting with 0.5 mM EDTA. Samples were then incubated with malachite green reagent (1 mM malachite green and 50 mM ammonium molybdate in 1 N HCl), and the absorbance at 650 nm was measured. The reaction rates, IC50 values, and max % inhibition were determined using Excel/GraphPad Prism software.

Structure (SMILES) | IC50 [µM] | max % inh [%]
O=C(O)c1ccc(NC(=O)c2cc(-c3ccccc3)cn2Cc2csc(N3CCCCC3)n2)cc1 [Compound A-51, 4-(4-phenyl-1-((2-(piperidin-1-yl)thiazol-4-yl)methyl)-1H-pyrrole-2-carboxamido)benzoic Acid] | 1.8 | 78
Cc1cc(C(=O)Nc2ccc(C(=O)O)cc2)n(Cc2csc(-c3cn[nH]c3)n2)c1 [Compound A-49, 4-(1-((2-(1H-pyrazol-4-yl)thiazol-4-yl)methyl)-4-methyl-1H-pyrrole-2-carboxamido)benzoic Acid] | 5.6 | 79
O=C(O)c1ccc(NC(=O)c2cc([N+](=O)[O-])cn2Cc2csc(N3CCCCC3)n2)cc1 [Compound A-45, 4-(4-nitro-1-((2-(piperidin-1-yl)thiazol-4-yl)methyl)-1H-pyrrole-2-carboxamido)benzoic Acid] | 22 | 49
Cc1cc(C(=O)Nc2ccc(C(=O)O)cc2)n(Cc2csc(N3CCCC(F)C3)n2)c1 (stereo not shown) [Compound A-46, 4-(1-((2-(3-fluoropiperidin-1-yl)thiazol-4-yl)methyl)-4-methyl-1H-pyrrole-2-carboxamido)benzoic Acid] | 12.7 | 64
Cc1cc(C(=O)NCc2cccc(C(=O)O)c2)n(Cc2csc(N3CCCCC3)n2)c1 [Compound A-2, 3-((4-methyl-1-((2-(piperidin-1-yl)thiazol-4-yl)methyl)-1H-pyrrole-2-carboxamido)methyl)benzoic Acid] | 3.2 | 93
Cc1cc(C(=O)Nc2ccc(C(=O)O)cc2)n(Cc2csc(N3CCCCC3)n2)c1 [Compound A-5, 4-(4-methyl-1-((2-(piperidin-1-yl)thiazol-4-yl)methyl)-1H-pyrrole-2-carboxamido)benzoic Acid] | 1.9 | 84
CC(O)c1cc(C(=O)Nc2ccc(C(=O)O)cc2)n(Cc2csc(N3CCCCC3)n2)c1 (stereo not shown) [Compound A-65, 4-(4-(1-hydroxyethyl)-1-((2-(piperidin-1-yl)thiazol-4-yl)methyl)-1H-pyrrole-2-carboxamido)benzoic Acid] | 43.7 | 48
Cc1cc(C(=O)Nc2ccc(C(=O)O)cc2)n(Cc2csc(C3CCCCC3)n2)c1 [Compound A-60, 4-(1-((2-cyclohexylthiazol-4-yl)methyl)-4-methyl-1H-pyrrole-2-carboxamido)benzoic Acid] | 8.9 | 70
Cc1cc(C(=O)Nc2ccc(C(=O)O)cc2)n(Cc2csc(C3=CCCCC3)n2)c1 [Compound A-55, 4-(1-((2-(cyclohex-1-en-1-yl)thiazol-4-yl)methyl)-4-methyl-1H-pyrrole-2-carboxamido)benzoic Acid] | 11.6 | 80
CCc1cc(C(=O)Nc2ccc(C(=O)O)cc2)n(Cc2csc(N3CCCCC3)n2)c1 [Compound A-52, 4-(4-ethyl-1-((2-(piperidin-1-yl)thiazol-4-yl)methyl)-1H-pyrrole-2-carboxamido)benzoic Acid] | 2.1 | 81
COC(C)c1cc(C(=O)Nc2ccc(C(=O)O)cc2)n(Cc2csc(N3CCCCC3)n2)c1 (stereo not shown) [Compound A-59, 4-(4-(1-methoxyethyl)-1-((2-(piperidin-1-yl)thiazol-4-yl)methyl)-1H-pyrrole-2-carboxamido)benzoic Acid] | 17.2 | 59
Cc1ccc(C(=O)Nc2ccc(C(=O)O)cc2)n1Cc1csc(N2CCCCC2)n1 [Compound A-42, 4-(5-methyl-1-((2-(piperidin-1-yl)thiazol-4-yl)methyl)-1H-pyrrole-2-carboxamido)benzoic Acid] | 26 | 58
Cc1cc(C(=O)Nc2ccc(C(=O)O)cc2)n(Cc2csc(N3CCCC3)n2)c1 [Compound A-10, 4-(4-methyl-1-((2-(pyrrolidin-1-yl)thiazol-4-yl)methyl)-1H-pyrrole-2-carboxamido)benzoic Acid] | 78 | 56
Cc1cc(C(=O)Nc2ccc(C(=O)O)cc2)n(Cc2csc(N3CCCCC3)n2)n1 [Compound A-50, 4-(3-methyl-1-((2-(piperidin-1-yl)thiazol-4-yl)methyl)-1H-pyrazole-5-carboxamido)benzoic Acid] | 30.5 | 41
Cc1cc(C(=O)Nc2ccc(C(=O)O)cc2)n(Cc2csc(-c3cccnc3)n2)c1 [Compound A-44, 4-(4-methyl-1-((2-(pyridin-3-yl)thiazol-4-yl)methyl)-1H-pyrrole-2-carboxamido)benzoic Acid] | 69 | 27
Cc1cc(C(=O)Nc2ccc(C(=O)O)cc2)n(Cc2csc(-c3ccc4c(c3)CCO4)n2)c1 [Compound A-48, 4-(1-((2-(2,3-dihydrobenzofuran-5-yl)thiazol-4-yl)methyl)-4-methyl-1H-pyrrole-2-carboxamido)benzoic Acid] | 39.5 | 58
Cc1cc(C(=O)Nc2cccc(C(=O)O)c2)n(Cc2csc(N3CCCCC3)n2)c1 [Compound A-4, 3-(4-methyl-1-((2-(piperidin-1-yl)thiazol-4-yl)methyl)-1H-pyrrole-2-carboxamido)benzoic Acid] | 7 | 74
